Here are results for 1 substance from patent publication US20140243292A1, “SUBSITUTED 2-(CHROMAN-6-YLOXYL)-THIAZOLES AND THEIR USE AS PHARMACEUTICALS” (Sanofi, priority 2011, published 2014).

pIC50: −log10 of the molar value.

This assay concerns the target T1, human NCX1 (Homo sapiens, UniProt P32418).
T1 construct: expressed in transfected cells
As to the kind of experiment: NCX1 inhibition, reverse mode (Ca2+ influx into cells), FLIPR Fluo-4 assay. The class given is cell-based. To be noted: inhibition of NCX1 in reverse mode (Ca2+ influx into cells); read-out: NCX1rv IC50. From the text: The sodium/calcium exchanger NCX1 can transport calcium ions and sodium ions through the cell membrane. The transport is an exchange of Ca^2+ and Na^+ in two directions depending on membrane potential and ion gradients. At the first direction, named “forward mode” or “calcium export mode”, Ca^2+ is transported out of the cell and Na^+ is transported into the cell. At the other direction, named “reverse mode” or “calcium import mode”, the transport directions are vice versa. The effect of the compounds of the invention on NCX1 was determined in CHO cells stably expressing human NCX1 (gene symbol SLC8A1; cf. WO 2009/115238). The assay is based on the monitoring of intracellular Ca^2+ concentrations using a calcium-sensitive fluorescence dye which is detected by means of a FLIPR device (Fluorimetric Imaging Plate Reader, Molecular Devices).
The assay is based on the monitoring of intracellular Ca^2+ concentrations using the calcium-sensitive dye Fluo-4. CHO cells expressing NCX1 were loaded with the dye by means of the acetoxymethyl ester Fluo-4 AM (Invitrogen, F14202), which is cleaved intracellularly by esterase activity to yield the charged species of free Fluo-4. […] The intracellular elevation of Ca^2+ ions was detected by measuring the fluorescence of Fluo-4 at a wavelength of 520 nm by a FLIPR device. […]

Turning to “2-((S)-2-Phenyl-chroman-6-yloxy)-thiazole-5-carboxylic acid (2-dimethylamino-ethyl)-amide [compound 279]”, the pIC50 was 6.30.

As usually defined, the pIC50 is the negative decadic logarithm of the IC50, by convention in mol/L.
